The list shows a part of the results, in another mix than the full data. Calls of active or inactive are those of the source.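 Rule for the calls: active = mean inhibition of replicates at least 50% and at least half of replicates each reaching 50%; inconclusive = half or more replicates reach 50% but mean below 50%; inactive = the rest.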
Biological target: Transforming acidic coiled-coil-containing protein 3 (Homo sapiens) (UniProt Q9Y6A5)
Experiment: inhibitors of ARNT PAS-B binding to TACC3 – biochemical, AlphaScreen, single concentration, primary screen (AID 623870);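 note: 0% = complete ARNT plus TACC3 wells and 100% = ARNT alone without TACC3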
Details: AlphaScreen His-ARNT PAS-B/GST-TACC3 binding, luminescence; at 9.99 µM; hits give high values; TACC3 fragment carries E629A point mutation

SMILES	inhibition
CCCN1CCC(Nc2cc(OC)cc(OC)c2)CC1	inactive: 42.3%
Cc1cc(N(CCCl)CCCl)ccc1C=O	inactive: -6.13%
c1ccc(CN2CCC(Nc3ccccc3)CC2)cc1	inactive: -12%
CN(C)C1(CNC(=O)c2cccc(C#N)c2)CCCCC1	inactive: -0.826%
CC(C)(C)OC(=O)N1CCC(N(C(=O)c2ccccc2)c2ccc(Cl)cc2)CC1	inactive: 14.4%
N#Cc1ccc(C(=O)NCC2(N3CCCCC3)CCCCC2)cc1	inactive: -6.71%
O=C(OC1CN2CCC1CC2)C1c2ccccc2C=Cc2ccccc21 (configuration not stated)	inactive: 6.84%
N/C(=N\O)c1c(N)no[n+]1[O-]	inactive: 2.71%
CCOC(=O)N1CCC(Nc2ccc(C)cc2)CC1	inactive: -2.2%
COc1cc(C(=O)NCC2(N3CCOCC3)CCCCC2)cc(OC)c1C	inactive: -1.63%
CN1CCC(Nc2ccc(Cl)cc2)CC1	inactive: 0.175%
CCC(CO)(C(=O)OC1CN2CCC1CC2)c1ccccc1 (configuration not stated)	inactive: -0.56%
COc1cc(OC)cc(C(=O)NCC2(N3CCOCC3)CCCCC2)c1	inactive: -1.22%
COc1cccc(C(=O)N(c2cc(C)cc(C)c2)C2CCN(C(=O)OC(C)(C)C)CC2)c1	inactive: -1.52%
CCCOc1ccc(C(=O)NCC2(N(C)C)CCCCC2)cc1	inactive: -14.5%
O=C(O)C1(Nc2ccccc2)CCN(Cc2ccccc2)CC1	inactive: -2.32%
CN1CCC(Nc2ccc(F)c(Cl)c2)CC1	inactive: -4.44%
CCOc1ncccc1C(=O)NCC1(N2CCOCC2)CCCCC1	inactive: -4.02%
CN(C)c1ccc(C(=O)NCC2(N3CCCCC3)CCCCC2)cc1	inactive: 13.5%
Cn1c(=O)[nH]cc(N(CCCl)CCCl)c1=O	active: 13.4%
O=C(NCC1(N2CCCCC2)CCCCC1)c1ccco1	inactive: 2.71%
CCN1CCC(Nc2cccc(F)c2)CC1	inactive: -9.76%
Cc1ccccc1NC1(C#N)CCN(Cc2ccccc2)CC1	inactive: -0.055%

SMILES	inhibition
Cc1ccc(NC2(C#N)CCN(Cc3ccccc3)CC2)cc1	inactive: -1.28%
Fc1ccccc1NC1CCN(Cc2ccccc2)CC1	inactive: 3.52%
Cc1ccc(C(=O)NCC2(N3CCCCC3)CCCCC2)o1	inactive: 1.74%
COc1cc(OC)cc(C(=O)NCC2(N3CCCCC3)CCCCC2)c1	inactive: -1.97%
CC(=O)N(c1ccccc1)C1CCNCC1	inactive: -5.91%
CCOC(=O)N1CCC(Nc2cccc(C)c2)CC1	inactive: 2.83%
COc1cc(C(=O)NCC2(N(C)C)CCCCC2)ccc1OC(F)F	inactive: 10.2%
COc1ccc(NC2CCN(CCc3ccccc3)CC2)c(OC)c1	inactive: -1.66%
CCOC(=O)N1CCC(Nc2ccc(F)cc2)CC1	inactive: -13%
O=P1(N(CCCl)CCCl)SCCCS1	inactive: 17.1%
CCCCOc1ccc(C(=O)NCC2(N3CCOCC3)CCCCC2)cc1	inactive: 1.86%
O=C(NCC1(N2CCCCC2)CCCCC1)c1ccc(F)cc1	inactive: -4.71%
CCOc1ccc(C)cc1CN(CCCl)CCCl	inactive: -1.47%
O=C1CCN(Cc2ccccc2)CC1	inactive: -3.63%
CCOC(=O)N1CCC(Nc2ccc(OC)cc2)CC1	inactive: 2.47%
N#CC1(Nc2ccccc2)CCN(Cc2ccccc2)CC1	inactive: -7.32%
O=C(OC1CN2CCC1CC2)C1c2ccccc2Oc2ccccc21 (configuration not stated)	inactive: 5.36%
O=C(NCC1(N2CCOCC2)CCCCC1)c1cc2ccccc2o1	inactive: -1.41%
Cc1cc(C)cc(N(C(=O)c2ccccc2)C2CCN(C(=O)OC(C)(C)C)CC2)c1	inactive: -0.98%
O=C(NCC1(N2CCCCC2)CCCCC1)c1ccc(Cl)nc1	inactive: 0.734%
Cc1cccc(NC2(C#N)CCN(Cc3ccccc3)CC2)c1	inactive: -2.55%
CSc1ccccc1C(=O)NCC1(N2CCCCC2)CCCCC1	inactive: 3.61%
O=C(NCC1(N2CCCCC2)CCCCC1)c1ccc(=O)[nH]c1	inactive: -1.5%

SMILES	inhibition
COc1ccc(C(=O)NCC2(N3CCCCC3)CCCCC2)c(OC)c1OC	inactive: -1.39%
CC(C)(C)OC(=O)N1CCC(N(C(=O)c2ccccc2)c2ccc(F)cc2)CC1	inactive: -13.2%
COc1ccc(C(=O)NCC2(N3CCCCC3)CCCCC2)cc1	inactive: 0.951%
CCCOc1ccc(C(=O)NCC2(N(C)C)CCCCC2)cc1OC	inactive: 0.716%
CN1CCC(Nc2cccc(F)c2)CC1	inactive: 16.7%
O=C(NCC1(N2CCCCC2)CCCCC1)c1cncc(Br)c1	inactive: 1.46%
O=C(NCC1(N2CCOCC2)CCCCC1)c1cc(F)c(F)cc1Cl	inactive: -0.765%
COc1cc(OC)c(C(=O)NCC2(N(C)C)CCCCC2)cc1OC	inactive: -1.48%
CN(C)c1cccc(C(=O)NCC2(N3CCCCC3)CCCCC2)c1	inactive: 5.64%
COc1ccc(CN(CCCl)CCCl)cc1Cl	inactive: 2.98%
CC(C)c1ccc(NC2CCN(C(=O)OC(C)(C)C)CC2)cc1	inactive: 18.2%
CN1CCN(CCOC(=O)C(O)(c2ccccc2)c2ccccc2)CC1	inactive: -2.81%
COc1ccc(NC2CCN(C(=O)OC(C)(C)C)CC2)cc1	inactive: 2.22%
CC(C)c1ccc(C(=O)NCC2(N3CCOCC3)CCCCC2)cc1	inactive: 2.55%
O=C(NCC1(N2CCOCC2)CCCCC1)c1cc(=O)[nH]c2ccccc12	inactive: 2.02%
O=C(NCC1(N2CCCCC2)CCCCC1)c1cccc(C(F)(F)F)c1	inactive: 2.1%
CSc1ccc(C(=O)NCC2(N3CCOCC3)CCCCC2)cc1	inactive: 4.64%
O=C(NCC1(N2CCCCC2)CCCCC1)c1cccc([N+](=O)[O-])c1	inactive: 0.847%
N#CC1(Nc2ccccc2)CCN(CCc2ccccc2)CC1	inactive: -2.67%
CCN1CCC(Nc2ccc(Cl)cc2)CC1	inactive: 0.857%
O=C(NCC1(N2CCCCC2)CCCCC1)c1ccc(OC(F)F)cc1	inactive: 4.57%
